Laboratory results as given in ChEMBL document CHEMBL4765267, “Targeting different binding sites in the CFTR structures allows to synergistically potentiate channel activity” (Eur J Med Chem, 2020).

Sequences of proteins named here, by UniProt entry; tags and fusion partners are left off.
UniProt P13569, whole entry G551D: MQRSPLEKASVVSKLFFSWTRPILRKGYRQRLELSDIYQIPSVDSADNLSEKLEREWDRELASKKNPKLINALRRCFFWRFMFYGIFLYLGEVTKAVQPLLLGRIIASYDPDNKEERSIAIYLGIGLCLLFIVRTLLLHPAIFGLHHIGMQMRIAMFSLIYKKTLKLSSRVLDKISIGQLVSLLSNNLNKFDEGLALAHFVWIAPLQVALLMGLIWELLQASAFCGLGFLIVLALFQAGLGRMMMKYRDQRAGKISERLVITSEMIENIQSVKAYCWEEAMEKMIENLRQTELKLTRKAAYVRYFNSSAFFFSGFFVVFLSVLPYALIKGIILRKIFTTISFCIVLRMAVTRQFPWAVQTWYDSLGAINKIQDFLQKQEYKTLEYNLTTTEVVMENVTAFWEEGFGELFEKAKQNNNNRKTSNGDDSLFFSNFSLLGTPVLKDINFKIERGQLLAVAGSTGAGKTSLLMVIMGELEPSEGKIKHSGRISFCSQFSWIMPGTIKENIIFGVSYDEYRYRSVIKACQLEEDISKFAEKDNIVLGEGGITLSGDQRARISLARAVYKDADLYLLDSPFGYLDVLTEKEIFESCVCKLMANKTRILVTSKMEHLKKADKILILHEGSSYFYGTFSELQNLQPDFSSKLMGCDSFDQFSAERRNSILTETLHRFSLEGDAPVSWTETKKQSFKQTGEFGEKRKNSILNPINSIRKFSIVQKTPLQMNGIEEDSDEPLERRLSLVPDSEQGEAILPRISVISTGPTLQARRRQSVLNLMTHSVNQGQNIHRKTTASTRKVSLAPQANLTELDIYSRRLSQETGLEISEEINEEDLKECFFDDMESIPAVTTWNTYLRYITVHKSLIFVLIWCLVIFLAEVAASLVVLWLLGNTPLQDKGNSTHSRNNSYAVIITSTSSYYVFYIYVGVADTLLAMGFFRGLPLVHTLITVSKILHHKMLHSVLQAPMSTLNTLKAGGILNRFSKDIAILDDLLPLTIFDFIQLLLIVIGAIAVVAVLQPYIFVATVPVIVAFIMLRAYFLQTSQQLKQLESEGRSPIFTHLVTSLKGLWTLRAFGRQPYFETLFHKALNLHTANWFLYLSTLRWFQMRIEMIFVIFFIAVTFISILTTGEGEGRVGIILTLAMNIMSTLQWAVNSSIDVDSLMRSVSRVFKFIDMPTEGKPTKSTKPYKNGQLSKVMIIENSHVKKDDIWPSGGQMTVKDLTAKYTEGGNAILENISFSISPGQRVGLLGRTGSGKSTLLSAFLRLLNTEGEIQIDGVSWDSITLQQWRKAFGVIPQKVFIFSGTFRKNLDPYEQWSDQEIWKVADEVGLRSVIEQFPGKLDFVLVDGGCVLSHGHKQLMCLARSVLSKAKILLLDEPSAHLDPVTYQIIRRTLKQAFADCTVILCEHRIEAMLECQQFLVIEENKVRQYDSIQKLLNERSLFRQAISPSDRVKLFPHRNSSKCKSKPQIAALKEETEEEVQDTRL
UniProt P13569, whole entry G970R: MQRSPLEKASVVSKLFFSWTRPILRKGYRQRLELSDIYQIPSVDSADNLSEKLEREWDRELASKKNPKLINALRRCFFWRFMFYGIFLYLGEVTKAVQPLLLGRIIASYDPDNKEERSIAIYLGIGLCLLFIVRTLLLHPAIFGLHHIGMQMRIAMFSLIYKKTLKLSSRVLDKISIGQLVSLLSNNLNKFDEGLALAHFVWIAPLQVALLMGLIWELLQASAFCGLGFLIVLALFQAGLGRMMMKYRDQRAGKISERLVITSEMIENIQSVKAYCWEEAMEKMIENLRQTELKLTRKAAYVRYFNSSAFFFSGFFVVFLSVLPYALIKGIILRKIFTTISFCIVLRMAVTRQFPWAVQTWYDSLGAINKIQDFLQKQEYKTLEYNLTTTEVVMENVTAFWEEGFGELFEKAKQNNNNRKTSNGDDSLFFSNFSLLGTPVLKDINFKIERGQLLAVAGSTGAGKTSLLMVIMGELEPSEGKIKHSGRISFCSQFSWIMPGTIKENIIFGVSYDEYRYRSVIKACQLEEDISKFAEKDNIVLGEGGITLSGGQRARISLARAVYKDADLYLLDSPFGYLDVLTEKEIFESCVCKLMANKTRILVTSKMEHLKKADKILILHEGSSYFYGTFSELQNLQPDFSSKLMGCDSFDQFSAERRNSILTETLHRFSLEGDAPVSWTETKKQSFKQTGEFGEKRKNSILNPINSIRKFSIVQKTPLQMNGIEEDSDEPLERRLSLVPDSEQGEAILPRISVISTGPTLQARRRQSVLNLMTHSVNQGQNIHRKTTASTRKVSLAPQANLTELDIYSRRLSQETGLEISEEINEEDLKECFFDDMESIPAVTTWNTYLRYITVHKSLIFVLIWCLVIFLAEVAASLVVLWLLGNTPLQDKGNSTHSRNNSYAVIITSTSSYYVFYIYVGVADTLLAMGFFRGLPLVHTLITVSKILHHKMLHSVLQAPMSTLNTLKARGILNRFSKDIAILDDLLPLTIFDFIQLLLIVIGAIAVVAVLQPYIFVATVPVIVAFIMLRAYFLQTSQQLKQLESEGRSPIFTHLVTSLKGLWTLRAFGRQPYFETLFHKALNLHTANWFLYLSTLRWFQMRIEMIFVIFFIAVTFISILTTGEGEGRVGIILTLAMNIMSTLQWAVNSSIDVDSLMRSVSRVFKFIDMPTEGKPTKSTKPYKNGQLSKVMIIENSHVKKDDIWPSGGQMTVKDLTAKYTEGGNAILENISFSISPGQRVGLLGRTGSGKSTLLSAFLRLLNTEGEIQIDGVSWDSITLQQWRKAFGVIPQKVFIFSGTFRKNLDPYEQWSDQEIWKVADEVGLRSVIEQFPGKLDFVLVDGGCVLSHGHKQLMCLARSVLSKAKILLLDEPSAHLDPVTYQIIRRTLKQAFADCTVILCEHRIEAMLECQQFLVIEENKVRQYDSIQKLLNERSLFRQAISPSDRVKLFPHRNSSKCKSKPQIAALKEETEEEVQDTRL
UniProt P13569, whole entry, looked up: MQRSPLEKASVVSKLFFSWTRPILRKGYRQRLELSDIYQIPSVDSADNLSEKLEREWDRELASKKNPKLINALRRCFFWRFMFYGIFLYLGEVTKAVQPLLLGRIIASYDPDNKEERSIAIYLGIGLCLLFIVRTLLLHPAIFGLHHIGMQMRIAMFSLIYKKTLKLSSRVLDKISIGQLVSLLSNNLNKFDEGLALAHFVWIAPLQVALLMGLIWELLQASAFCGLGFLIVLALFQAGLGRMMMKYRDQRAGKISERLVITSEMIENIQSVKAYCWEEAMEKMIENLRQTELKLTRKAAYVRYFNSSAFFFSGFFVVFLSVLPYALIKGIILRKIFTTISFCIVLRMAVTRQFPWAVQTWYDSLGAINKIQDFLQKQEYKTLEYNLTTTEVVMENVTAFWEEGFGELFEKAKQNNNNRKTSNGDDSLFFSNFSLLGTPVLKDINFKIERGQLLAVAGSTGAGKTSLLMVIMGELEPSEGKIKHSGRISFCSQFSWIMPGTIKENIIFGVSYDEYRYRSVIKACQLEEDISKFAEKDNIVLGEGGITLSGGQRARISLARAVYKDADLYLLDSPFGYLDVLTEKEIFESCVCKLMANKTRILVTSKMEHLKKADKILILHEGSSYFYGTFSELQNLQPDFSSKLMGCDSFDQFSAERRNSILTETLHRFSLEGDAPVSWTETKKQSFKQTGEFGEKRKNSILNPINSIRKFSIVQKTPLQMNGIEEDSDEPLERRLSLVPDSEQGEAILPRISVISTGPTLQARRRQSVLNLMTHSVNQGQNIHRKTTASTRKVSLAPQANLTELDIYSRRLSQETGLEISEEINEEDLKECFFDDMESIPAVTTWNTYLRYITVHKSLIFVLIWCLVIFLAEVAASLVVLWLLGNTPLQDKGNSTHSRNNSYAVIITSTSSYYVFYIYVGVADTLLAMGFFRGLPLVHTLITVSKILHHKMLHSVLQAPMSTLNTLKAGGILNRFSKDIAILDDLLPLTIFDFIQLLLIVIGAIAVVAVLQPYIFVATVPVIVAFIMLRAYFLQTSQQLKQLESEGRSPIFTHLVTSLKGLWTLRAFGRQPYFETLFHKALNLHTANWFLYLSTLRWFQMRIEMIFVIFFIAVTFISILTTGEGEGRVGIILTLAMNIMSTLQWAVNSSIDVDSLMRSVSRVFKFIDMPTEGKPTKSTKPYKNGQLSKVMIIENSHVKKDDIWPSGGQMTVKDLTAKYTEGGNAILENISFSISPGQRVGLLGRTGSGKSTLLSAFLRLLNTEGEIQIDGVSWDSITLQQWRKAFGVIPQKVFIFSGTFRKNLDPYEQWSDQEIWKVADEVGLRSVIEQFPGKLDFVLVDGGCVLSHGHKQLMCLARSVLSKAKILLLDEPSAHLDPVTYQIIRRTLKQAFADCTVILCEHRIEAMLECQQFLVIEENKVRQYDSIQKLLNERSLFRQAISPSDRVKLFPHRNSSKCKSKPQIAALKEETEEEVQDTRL
UniProt P13569, whole entry G1349D: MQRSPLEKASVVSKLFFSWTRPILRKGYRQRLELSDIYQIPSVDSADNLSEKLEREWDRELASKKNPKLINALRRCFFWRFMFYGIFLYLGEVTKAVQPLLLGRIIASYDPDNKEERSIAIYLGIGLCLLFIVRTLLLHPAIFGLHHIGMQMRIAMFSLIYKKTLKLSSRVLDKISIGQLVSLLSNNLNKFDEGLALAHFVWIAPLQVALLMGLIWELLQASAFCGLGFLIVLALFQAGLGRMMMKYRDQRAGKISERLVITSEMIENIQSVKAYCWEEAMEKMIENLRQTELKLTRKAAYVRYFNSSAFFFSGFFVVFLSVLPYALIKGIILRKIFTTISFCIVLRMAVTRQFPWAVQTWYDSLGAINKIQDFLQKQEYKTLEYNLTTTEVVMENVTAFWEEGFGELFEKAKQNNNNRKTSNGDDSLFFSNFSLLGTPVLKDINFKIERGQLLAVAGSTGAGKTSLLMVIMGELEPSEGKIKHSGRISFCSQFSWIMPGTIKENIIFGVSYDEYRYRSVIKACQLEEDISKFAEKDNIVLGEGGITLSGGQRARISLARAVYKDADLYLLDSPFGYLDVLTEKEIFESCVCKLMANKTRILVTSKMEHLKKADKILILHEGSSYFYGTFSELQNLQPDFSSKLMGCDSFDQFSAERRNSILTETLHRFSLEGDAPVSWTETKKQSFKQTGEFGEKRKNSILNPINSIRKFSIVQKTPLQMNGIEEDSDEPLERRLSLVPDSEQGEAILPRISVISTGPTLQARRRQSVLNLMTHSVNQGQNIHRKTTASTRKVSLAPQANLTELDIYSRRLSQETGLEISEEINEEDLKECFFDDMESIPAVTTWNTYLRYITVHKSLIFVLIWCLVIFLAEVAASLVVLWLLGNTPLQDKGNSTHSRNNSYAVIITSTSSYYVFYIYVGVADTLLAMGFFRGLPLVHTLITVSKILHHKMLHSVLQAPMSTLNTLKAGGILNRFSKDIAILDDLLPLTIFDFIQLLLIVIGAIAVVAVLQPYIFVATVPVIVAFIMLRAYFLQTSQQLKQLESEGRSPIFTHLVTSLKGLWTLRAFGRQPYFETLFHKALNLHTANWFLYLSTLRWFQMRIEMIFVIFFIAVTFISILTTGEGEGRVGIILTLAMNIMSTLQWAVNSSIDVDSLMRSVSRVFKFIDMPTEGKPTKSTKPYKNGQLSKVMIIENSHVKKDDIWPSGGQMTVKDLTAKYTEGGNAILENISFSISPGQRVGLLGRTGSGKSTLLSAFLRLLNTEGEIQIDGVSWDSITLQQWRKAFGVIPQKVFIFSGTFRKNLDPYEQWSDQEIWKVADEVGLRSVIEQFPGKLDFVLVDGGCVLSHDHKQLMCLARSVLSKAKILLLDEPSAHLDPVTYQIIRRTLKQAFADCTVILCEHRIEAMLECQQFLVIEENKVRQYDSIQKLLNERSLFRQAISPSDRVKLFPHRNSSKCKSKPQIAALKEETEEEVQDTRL

Legend:
Format in all cases: cell-based
Conditions in all cases: filed as activator
[1] = test system: Cystic fibrosis transmembrane conductance regulator (Homo sapiens), P13569 [G551D]; test: Potentiation of CFTR G551D mutant (unknown origin) expressed in HEK293 cells at 10 uM by YFP fluorescence assay
[2] = test system: Cystic fibrosis transmembrane conductance regulator (Homo sapiens), P13569 [G970R]; test: Potentiation of CFTR G970R mutant (unknown origin) expressed in HEK293 cells at 10 uM by YFP fluorescence assay
[3] = target: Cystic fibrosis transmembrane conductance regulator (Homo sapiens) (UniProt P13569); test: Potentiation of wild type CFTR (unknown origin) expressed in HEK293 cells at 10 uM by YFP fluorescence assay
Procedure, shortened: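 HEK293 cells co-transfected with YFP-H148Q/I152L and WT or mutant CFTR (Turbofect), plated in 96-well plates after 24 h. Cells incubated 30 min in PBS with cpt-cAMP 100 µM and IBMX 100 µM, with or without compounds (10 or 50 μM; VX-770 10 μM, alone or combined). NaI-PBS injected; exponential fit of fluorescence decay gives I⁻ influx rate (mM/s). One-way ANOVA with Fisher test.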

[4] = test system: Cystic fibrosis transmembrane conductance regulator (Homo sapiens), P13569 [G1349D]; test: Potentiation of CFTR G1349D mutant (unknown origin) expressed in HEK293 cells at 10 uM by YFP fluorescence assay
[5] = test system: Cystic fibrosis transmembrane conductance regulator (Homo sapiens), P13569 [F508del]; test: Potentiation of CFTR F508 deletion mutant (unknown origin) expressed in HeLa cells assessed as current density at 0.1 uM after 24 hrs in presence of forskolin and CFTR inhibitor-172 by automated whole cell patch-clamp assay
[6] = test system: Cystic fibrosis transmembrane conductance regulator (Homo sapiens), P13569 [F508del]; test: Potentiator activity at CFTR F508del mutant (unknown origin) expressed in CFBE41o cells assessed as increase in short-circuit current at 1 uM incubated for 24 hrs in presence of 10 uM VX-809 by Ussing chamber assay
Procedure, shortened: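 CFBE41o- cells stably overexpressing F508del-CFTR, grown on fibronectin-coated inserts at air/liquid interface until resistance ≥300 Ω·cm-2. Corrected 24 h with 10 µM VX-809, with VX-809 (10 µM) and amiloride (100 µM) added apically at the start. CFTR pre-activated with 0.1 µM forskolin, then compounds added apically in sequence. ΔIsc recorded at 35-38 °C, gassed 95% O2/5% CO2.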

Activity [1]: Active
Activity [2]: Active
Activity [3]: Active
Activity [4]: Active
Activity [5]: 37.5 pA/pF
Activity [6]: 3 uA.cm^-2
SMILES: CC(C)(C)c1cc(C(C)(C)C)c(NC(=O)c2c[nH]c3ccccc3c2=O)cc1O [IVACAFTOR]

Calls of active or inactive are those of the source. No cut-off for these calls is given here.
